Data: publication PMC5030486, “Neprilysin is a Mediator of Alternative Renin-Angiotensin-System Activation in the Murine and Human Kidney” (Scientific Reports, 2016)

Molecular target: T1, NEP (Mus musculus, UniProt Q61391)
T1 sequence (Q61391 1-750): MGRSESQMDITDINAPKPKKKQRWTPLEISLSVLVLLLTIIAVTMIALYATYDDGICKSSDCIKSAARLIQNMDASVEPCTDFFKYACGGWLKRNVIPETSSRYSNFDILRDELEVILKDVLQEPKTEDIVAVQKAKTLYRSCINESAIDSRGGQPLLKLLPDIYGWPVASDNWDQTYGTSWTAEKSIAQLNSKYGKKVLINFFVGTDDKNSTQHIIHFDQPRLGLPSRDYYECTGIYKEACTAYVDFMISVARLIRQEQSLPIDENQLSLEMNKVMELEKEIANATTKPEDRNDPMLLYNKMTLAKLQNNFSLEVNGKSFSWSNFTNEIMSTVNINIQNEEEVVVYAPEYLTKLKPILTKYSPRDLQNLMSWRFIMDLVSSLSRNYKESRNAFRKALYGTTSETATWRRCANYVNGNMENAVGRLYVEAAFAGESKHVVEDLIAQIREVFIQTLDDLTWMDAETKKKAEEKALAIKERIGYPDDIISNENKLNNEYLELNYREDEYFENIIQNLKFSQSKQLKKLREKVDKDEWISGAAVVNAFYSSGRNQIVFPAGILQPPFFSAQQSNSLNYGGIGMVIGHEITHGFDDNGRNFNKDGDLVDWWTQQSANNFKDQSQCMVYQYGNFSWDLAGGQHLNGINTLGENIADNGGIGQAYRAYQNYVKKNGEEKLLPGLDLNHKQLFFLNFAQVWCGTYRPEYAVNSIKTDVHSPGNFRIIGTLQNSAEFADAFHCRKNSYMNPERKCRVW
Assay: MALDI-Imaging of Ang I to Ang-(1-7) turnover in murine kidney cryo-sections
Settings: murine kidney slices incubated with Ang I, DL-thiorphan 0 μM – 100 μM

O=C(O)CNC(=O)C(CS)Cc1ccccc1 (racemic) [DL-thiorphan]
Ang-(1-7) signal in renal cortex with increasing inhibitor concentration: dose-depended DL-thiorphan-sensitive Ang-(1-7) signal
